Among the data in PubChem BioAssay AID720707 (National Center for Advancing Translational Sciences (NCATS), 2013) are activation values, retold here.

Amino acid sequences for entries named in this document (tags omitted).
UniProt O95398, whole entry: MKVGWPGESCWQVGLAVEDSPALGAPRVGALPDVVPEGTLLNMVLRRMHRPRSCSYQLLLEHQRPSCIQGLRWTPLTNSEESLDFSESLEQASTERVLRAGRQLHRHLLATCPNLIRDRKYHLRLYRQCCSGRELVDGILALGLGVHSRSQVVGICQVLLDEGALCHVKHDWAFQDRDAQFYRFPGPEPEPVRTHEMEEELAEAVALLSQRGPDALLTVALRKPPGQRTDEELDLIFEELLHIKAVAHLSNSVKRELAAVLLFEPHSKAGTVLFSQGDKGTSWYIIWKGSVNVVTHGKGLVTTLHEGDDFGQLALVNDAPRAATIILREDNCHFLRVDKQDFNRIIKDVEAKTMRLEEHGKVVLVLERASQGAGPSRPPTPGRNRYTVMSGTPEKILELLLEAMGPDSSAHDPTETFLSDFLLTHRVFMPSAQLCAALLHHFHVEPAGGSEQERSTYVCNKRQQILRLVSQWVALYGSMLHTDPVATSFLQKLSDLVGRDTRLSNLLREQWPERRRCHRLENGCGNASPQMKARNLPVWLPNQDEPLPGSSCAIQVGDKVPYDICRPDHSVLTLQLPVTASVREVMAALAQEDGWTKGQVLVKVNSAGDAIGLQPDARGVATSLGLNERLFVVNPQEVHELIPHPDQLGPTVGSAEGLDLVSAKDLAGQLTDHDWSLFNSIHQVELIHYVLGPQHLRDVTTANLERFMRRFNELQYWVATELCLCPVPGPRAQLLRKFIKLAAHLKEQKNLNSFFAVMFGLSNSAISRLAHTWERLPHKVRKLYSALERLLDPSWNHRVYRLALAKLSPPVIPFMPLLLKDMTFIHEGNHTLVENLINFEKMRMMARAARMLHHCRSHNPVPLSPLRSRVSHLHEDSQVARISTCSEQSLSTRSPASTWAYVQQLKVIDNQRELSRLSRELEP

The structures appear in SMILES notation. This is a selection; strong and weak results do not stand in their true shares. Some results for these compounds are left out of this collection, so the calls shown say nothing about other tests. Active and inactive are the calls of the source. The call rests on the fitted dose curve; in most records, active means well fitted activation curve with a large enough effect; inconclusive means small, poorly fitted or top-dose-only effect; inactive means no such curve, though single readings can be large or run the other way.

In the assay the target is Rap guanine nucleotide exchange factor 3 (Homo sapiens) (UniProt O95398). Nature of the assay: qHTS for Agonist of cAMP-regulated guanine nucleotide exchange factor 3 (EPAC1): primary screen. Further: nearly all actives have a fitted effect of over 60% in size. Conditions: biochemical assay, 100% = response to 6.5 mM cAMP; at 154 µM (top of the series). An excerpt: In multi-cellular eukaryotic organisms, the effects of cAMP are transduced by two ubiquitously-expressed intracellular cAMP receptors, the classic protein kinase A/cAMP-dependent protein kinase (PKA/cAPK) and the more recently discovered exchange protein directly activated by cAMP/cAMP-regulated guanine nucleotide exchange factor (EPAC/cAMP-GEF). Both PKA and EPAC are ubiquitously expressed in all tissues, and an increase in intracellular cAMP levels will lead to the activation of both PKA and EPAC. Therefore, careful dissections of the individual role and relative contribution of EPAC and PKA within the overall cAMP signaling in various model systems are critical for further elucidating the mechanism of cAMP signaling. To date no EPAC-specific antagonists and agonist, as well as isoform-specific agonists have been reported, and developing EPAC-specific pharmacological probes to determine the physiological functions that EPAC play in the overall cAMP-mediated signaling remains a major challenge within the research field. Furthermore, identified regulators of EPAC may lead to new mechanism-based therapeutic strategies specifically targeting the EPAC / cAMP-signaling components as EPAC has been implicated to play important roles in major human pathological conditions such as diabetes, heart disease, and cancer.
This qHTS will be used to screen the Molecular Libraries Small Molecule Repository (MLSMR) as a concentration-titration series using the NCGC unique quantitative screening (qHTS) platform to find activators for EPAC1. In addition, this assay will also be used as a counterscreen for the EPAC2 qHTS. This fluorescent based assay is developed and validated for EPAC1 that measures exchange using EPAC effector Rap1 complex with BODIPY-GDP, a GDP analog with a tethered fluorophores. Activators are identified by monitoring the change in fluorescence signal as the exchanged free BODIPY-GDP has a reduced fluorescence compared to Rap1-bound BODIPY-GDP. Increase in signal (activation) is the desired outcome for the EPAC1 agonist while no activity in this assay is desired for the EPAC2 agonist counterscreen.
[1] de Rooij, J., Zwartkruis, F. J., Verheijen, M. H., Cool, R. H., Nijman, S. M., Wittinghofer, A., and Bos, J.L. (1998) Nature 396, 474-477
NIH Chemical Genomics Center [NCGC]
NIH Molecular Libraries Probe Centers Network [MLPCN]
Assay Submitter (PI): Xiaodong Cheng, The University of Texas Medical Branch
Briefly, three uL of reagents (100 nM EPAC1, 250 nM RAP1B-BODIPY-GDP, 50 uM GDP) were dispensed into a 1536-well Greiner black solid-bottom medium binding assay plate. Controls and test compounds (23 nL) were transferred to the plate via a Kalypsys pin tool equipped with a 1536-pin array. The plates were centrifuged at 1,000 rpm for 15 seconds followed by 5 minute incubation at room temperature. The assay plates were read at 5 minute intervals for 30 minutes in the ViewLux plate reader using 480nm excitation and 540nm emission filters. The results were normalized to the agonist positive control of 6.5 mM cAMP.
As to `Cc1ccc(C(=O)NCC2(N3CCCCC3)CCCCC2)cc1`, the activation is inactive: -4.17%. In the case of `CC(C)N1C(=O)CC2(CCN(CCOC(=O)C(O)(c3ccccc3)c3ccccc3)CC2)C1=O`, the activation was inactive: -5.01%. `CCN(CC)CC(C)C(C)OC(=O)C(O)(c1ccccc1)c1ccccc1` (stereo unspecified): the activation was inactive: 0.528%. As for `COc1cc(SC)ccc1C(=O)NCC1(N(C)C)CCCCC1`, the activation is inactive: 14.1%. In the case of `CN1[C@@H]2CC[C@H]1CC(OC(=O)C(O)(c1ccccc1)c1ccccc1)C2` (stereo partly specified), the activation is inactive: -6.6%. Turning to `O=C(NCC1(N2CCCCC2)CCCCC1)c1cc([N+](=O)[O-])ccc1Cl`, the activation was inactive: -7.7%.

`CCN1CCCC(OC(=O)C2(O)c3ccccc3C=Cc3ccccc32)C1` (stereo unspecified): the activation is inactive: 4.82%. Take `Cc1cc(C(=O)NCC2(N3CCCCC3)CCCCC2)ccc1[N+](=O)[O-]`: the activation is inactive: 6.62%.

For the molecule `O=C(NCC1(N2CCCCC2)CCCCC1)c1cccc(Br)c1`, the activation is inactive: 4.62%. Take `COc1ccc(C(=O)NCC2(N(C)C)CCCCC2)cc1`: the activation was inactive: -7.78%. With `C=CCN1CCN(CCOC(=O)C(O)(c2ccccc2)c2ccccc2)CC1`, the activation is inactive: -4.31%.

As for `O=C(NCC1(N2CCCCC2)CCCCC1)c1cc(F)c(F)cc1Cl`, the activation was inactive: 6.15%. Then `Cc1ccccc1C(=O)NCC1(N2CCCCC2)CCCCC1`, with inactive: 13.1%. Then `CN(C)c1ccc(C(=O)NCC2(N(C)C)CCCCC2)cc1`, with inactive: 6.59%. As to `CN(C)C1CCCC1OC(=O)C(O)(c1ccccc1)c1ccccc1` (stereo unspecified), the activation was inactive: -6.31%. Then `O=C(NCC1(N2CCCCC2)CCCCC1)c1cccc(Cl)c1`, with inactive: 6.14%; and `COc1cccc(C(=O)NCC2(N3CCCCC3)CCCCC2)c1`, with inactive: 1.14%; and `COc1ccc(Cl)cc1C(=O)NCC1(N(C)C)CCCCC1`, with inactive: 2.64%. Then `COc1cc(C(=O)NCC2(N(C)C)CCCCC2)c([N+](=O)[O-])cc1OC`, with inactive: 7.9%. `CN(C)C1(CNC(=O)c2ccc(Br)cc2)CCCCC1`: the activation was inactive: 4.56%. For `CN(C)c1cccc(C(=O)NCC2(N(C)C)CCCCC2)c1`, the activation was inactive: 2.1%.

`CC(C)Oc1ccc(C(=O)NCC2(N(C)C)CCCCC2)cc1`: the activation is inactive: 4.22%. For `O=C(OCCN1CCCC1)C(O)(c1ccccc1)c1ccccc1`, the activation was inactive: 8.54%. Then `COc1ccc(Br)c(C(=O)NCC2(N3CCCCC3)CCCCC2)c1`, with inactive: -1.86%; and `C=C(C)C#CC(O)(C(=O)OC1CCN(C)CC1)c1ccccc1` (stereo unspecified), with inactive: -8.91%; and `O=C(OC1CN2CCC1CC2)C(CO)(c1ccccc1)c1ccccc1` (stereo unspecified), with inactive: 4.3%.
